This assay deals with BT-474 cells. Nature of the assay: Immunofluorescence microscopy of drug localization (Cell Experiment I). The format is cell-based. To be noted: T-DM1 1 μg/ml or trastuzumab 10 μg/ml for 30 min. As for the experimental part:
After washing, each of the cells was fixed with 3.7% formaldehyde and permeabilized with 0.1% Triton-X 100. The fixed cells were incubated with rabbit anti-caveolin-1 antibody (1:100 dilution in PBS/0.1% Triton-100/3% BSA) at room temperature for 1 hour and then incubated with Cy3-conjugated anti-rabbit secondary antibodies (1:200 dilution in PBS/0.1% Triton-100/3% BSA) at room temperature for 1 hour. […] Expression of endocytic protein in each of the cells was observed by immunofluorescence microscopy, the results were shown as FIGS. 9 and 10.

Turning to trastuzumab, the “localization of drug in cells” value is “localized only in the cell membrane”.

Source of the values: patent US20170269061A1, “METHOD FOR ASSESSING SENSITIVITY OF A TARGET DRUG IN VITRO AND A BIOMARKER USED THEREOF” (Tunghai University, priority 2016, published 2017).
